Experimental data reported in ChEMBL document CHEMBL2177030.

How the values were obtained:
[1] = biological target: T1, Gastric triacylglycerol lipase (Canis lupus familiaris) (UniProt P80035); assay: Inhibition of dog recombinant gastric lipase expressed in transgenic maize at 200 molar excess compound concentration pre-incubated for 2 hrs with enzyme before substrate addition by pH-stat technique; format: single protein; details: Stomach
T1 sequence (whole entry): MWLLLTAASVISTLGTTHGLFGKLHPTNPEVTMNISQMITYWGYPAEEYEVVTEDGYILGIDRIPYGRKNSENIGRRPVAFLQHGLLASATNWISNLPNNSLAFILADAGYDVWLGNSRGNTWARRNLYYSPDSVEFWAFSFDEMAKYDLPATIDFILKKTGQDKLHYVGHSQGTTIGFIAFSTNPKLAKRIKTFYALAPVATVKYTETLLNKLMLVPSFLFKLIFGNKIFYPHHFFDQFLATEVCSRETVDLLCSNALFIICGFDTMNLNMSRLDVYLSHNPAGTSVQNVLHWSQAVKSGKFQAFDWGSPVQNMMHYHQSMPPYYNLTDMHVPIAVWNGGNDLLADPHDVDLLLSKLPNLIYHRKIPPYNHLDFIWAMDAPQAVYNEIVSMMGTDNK

[2] = biological target: T2, Pancreatic lipase-related protein 2 (Cavia porcellus) (UniProt P81139); assay: Inhibition of guinea pig recombinant PLRP2 expressed in Aspergillus oryzae at 200 molar excess compound concentration pre-incubated for 2 hrs with enzyme before substrate addition by pH-stat technique
T2 sequence (whole entry): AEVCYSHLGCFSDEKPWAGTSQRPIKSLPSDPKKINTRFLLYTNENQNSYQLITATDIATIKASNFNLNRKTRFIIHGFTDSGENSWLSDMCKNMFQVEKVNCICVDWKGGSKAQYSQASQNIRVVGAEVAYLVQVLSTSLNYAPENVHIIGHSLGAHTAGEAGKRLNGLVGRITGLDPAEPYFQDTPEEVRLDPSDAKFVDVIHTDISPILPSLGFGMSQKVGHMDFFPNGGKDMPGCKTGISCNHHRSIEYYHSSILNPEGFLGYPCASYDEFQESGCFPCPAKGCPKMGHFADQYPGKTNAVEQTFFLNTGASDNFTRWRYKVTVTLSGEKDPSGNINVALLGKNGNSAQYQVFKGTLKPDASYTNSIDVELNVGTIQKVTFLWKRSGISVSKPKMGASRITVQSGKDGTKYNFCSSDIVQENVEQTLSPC

[3] = biological target: T3, Pancreatic triacylglycerol lipase (Homo sapiens) (UniProt P16233); assay: Inhibition of human recombinant pancreatic lipase expressed in Pichia pastoris at 200 molar excess compound concentration pre-incubated for 2 hrs with enzyme before substrate addition by pH-stat technique
T3 sequence (whole entry): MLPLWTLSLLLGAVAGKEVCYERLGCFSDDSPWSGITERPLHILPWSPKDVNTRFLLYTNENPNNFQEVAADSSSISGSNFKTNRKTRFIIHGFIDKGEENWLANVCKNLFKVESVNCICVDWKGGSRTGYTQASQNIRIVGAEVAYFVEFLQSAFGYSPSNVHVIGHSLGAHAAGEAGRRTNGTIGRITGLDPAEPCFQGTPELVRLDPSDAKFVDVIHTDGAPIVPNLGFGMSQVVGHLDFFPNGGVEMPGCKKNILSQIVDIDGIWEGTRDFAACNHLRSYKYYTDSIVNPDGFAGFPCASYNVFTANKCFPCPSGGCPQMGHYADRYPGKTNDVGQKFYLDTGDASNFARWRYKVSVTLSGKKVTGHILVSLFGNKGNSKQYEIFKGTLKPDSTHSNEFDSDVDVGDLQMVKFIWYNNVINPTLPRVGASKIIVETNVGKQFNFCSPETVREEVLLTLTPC

Measured: inhibition

COC(=O)C1=C(C)OP(=O)(OC)CCC1c1ccccc1 (stereo not drawn)
inactive: all assays above

Activity calls are given as the source filed them.
